Experiments:
Type in all cases: cell-based
EGFR = experiment: Immunoblot analysis of EGFR phosphorylation and total EGFR; settings: 50 mg/ml; RWPE cells
[1] = system: immortalized benign RWPE prostate cells; experiment: Modified Boyden chamber matrigel invasion assay, RWPE cells; settings: 50 μg/ml
[2] = system: primary benign prostate epithelial cells PrEC; experiment: Modified Boyden chamber matrigel invasion assay, PrEC cells; settings: 50 μg/ml

With “C225: antibody-mediated inhibition of EGFR activity” the “EGFR phosphorylation, immunoblot” value (EGFR) was “inhibition of EGFR phosphorylation”, the “effect on sarcosine induced invasion” value [1] was “completely blocked” and the “effect on sarcosine induced invasion” value [2] was “completely blocked”.

Reference: US20090047269A1, “METABOLOMIC CANCER TARGETS” (The Regents of the University of Michigan, priority 2007, published 2009)
